Data: patent publication US20100022562A1, “Use of Plant Growth Regulators to Reduce Abscisic Acid Related Plant Leaf Yellowing” (priority 2008, published 2010)
Values belong to the compound of their own block, whether it stands above or below them.

Tested on: Pansy plants
Assay: Pansy yellow leaf number (leaf yellowing)
Assay type: in vivo
Experimental: All studies were conducted in the greenhouse at the research farm of Valent BioSciences Corporation (Long Grove, Ill.). Pansy plants were obtained either from local retailers as mature plants, or plugs from wholesale nurseries. Plugs of Pansy plants were transplanted into an 18-cell flat filled with Promix BX (available from Premier Horticulture Inc. Quakertown, Pa.) and grown for about 30 days prior to treatment. During growing periods, plants received daily irrigation and weekly fertilizer (1 g/L all purpose fertilizer 20-20-20, The Scotts Company, Marysville, Ohio).
Uniform plants were selected for the study. Prior to chemical treatment, plants were saturated with water and then drained for about two hours. A total of 20 mL chemical solution, which is equivalent to about 10% of the cell volume, was applied to each plant with 3 mL solution foliar applied to canopy and 17 mL solution drench applied to root zone. Unless specified, watering of plants was stopped after chemical treatment.
After chemical treatment, plants were arranged in a randomized complete block experimental design. The plants were rated daily for the extent of wilting on a scale from 1 (no wilting) to 4 (complete wilting) to generated a sales index rating. A rating of 2.5 was the point at which a plant was determined to be unmarketable and the previous day was recorded as the shelf life of that plant in days. […] Leaf transpiration rate was measured after treatment using a LI-1600 Steady State Porometer (LI-Cor, Lincoln, Nebr.). The transpiration rate of each treatment was calculated as the percentage of that of control at each day to reduce day-to-day variation caused by changes of environmental condition such as light intensity, humidity, and temperature.

[1] = 3 mg, Matrix Orange, drought, 3 d after treatment, Table 2

Yellow leaf number (0.3 mg PBI-429, no water, Whispers White, 3 d after treatment, Table 15): 12.3 | Yellow leaf number [1]: 12.2
Compound: C#CC1(C)CC(=O)C=C(C)C1(O)/C=C/C(C)=C\C(=O)OC (stereo not shown) [PBI-429, 8′ acetylene-ABA methyl ester]

Compound: COC(=O)C=C(C)C=CC1(O)C(C)=CC(=O)CC1(C)C1CC1 (stereo not shown) [PBI-696, 8′ cyclopropane ester]
Yellow leaf number [1]: 12.3

Compound: (S)-5-(1-hydroxy-2,6,6,-trimethyl-4-oxo-2-cyclohexen-1-yl)-3-methyl-(2Z,4E)-pentadienoic acid [ABA]
Yellow leaf number (0.3 mg ABA, Matrix Yellow, 3 d after treatment, Table 5): 5.3 | Yellow leaf number (0.3 mg ABA, Matrix Yellow, 3 d after treatment, Table 6): 7.8 | Yellow leaf number (0.3 mg ABA, Matrix Yellow, 3 days after treatment, Table 17): 7.0 | Yellow leaf number (0.3 mg ABA, Matrix Yellow, 7 days after treatment, Table 17): 12.0 | Yellow leaf number (1 mg, Matrix Orange, drought, 3 d after treatment, Table 1): 8 | Yellow leaf number (3 mg ABA, Colossus Formula Mix, 3 days after treatment, Table 20): 4.0 | Yellow leaf number (3 mg ABA, Colossus Formula Mix, 8 days after treatment, Table 20): 6.5 | Yellow leaf number (3 mg ABA, Delta Premium Pure White, 3 days after treatment, Table 21): 2.5 | Yellow leaf number (3 mg ABA, Delta Premium Pure White, 3 days after treatment, Table 22): 7.2 | Yellow leaf number (3 mg ABA, Delta Premium Pure White, 3 days after treatment, Table 24): 5.3 | Yellow leaf number (3 mg ABA, Delta Premium Pure White, 7 days after treatment, Table 22): 11.7 | Yellow leaf number (3 mg ABA, Delta Premium Pure White, 7 days after treatment, Table 24): 10.5 | Yellow leaf number (3 mg ABA, Delta Premium Pure White, 8 days after treatment, Table 21): 3.8 | Yellow leaf number (3 mg ABA, Matrix Yellow, 3 d after treatment, Table 5): 7.5 | Yellow leaf number (3 mg ABA, Matrix Yellow, 3 d after treatment, Table 6): 10.2 | Yellow leaf number (3 mg ABA, Matrix Yellow, 3 days after treatment, Table 17): 12.7 | Yellow leaf number (3 mg ABA, Matrix Yellow, 7 days after treatment, Table 17): 17.8 | Yellow leaf number (3 mg ABA, no water, Matrix Premium Rose, 3 d after treatment, Table 13): 8.3 | Yellow leaf number (3 mg, Clear Sky Yellow, drought, 3 d after treatment, Table 8): 3.2 | Yellow leaf number (3 mg, Crown Azure Blue, drought, 3 d after treatment, Table 9): 5.7 | Yellow leaf number (3 mg, Delta Premium Pure Golden Yellow, advanced seedling stage (1 month old), drought, 3 d after treatment, Table 4): 13.8 | Yellow leaf number (3 mg, Delta Premium Pure Golden Yellow, drought, 3 d after treatment, Table 3): 11.0 | Yellow leaf number (3 mg, Matrix Orange, drought, 3 d after treatment, Table 1): 11 | Yellow leaf number [1]: 12.0 | Yellow leaf number (3 mg, Matrix Yellow, drought, 3 d after treatment, Table 7): 11.3 | Yellow leaf number (3 mg, Matrix Yellow, drought, 3 d after treatment, Table 10): 14.7 | Yellow leaf number (10 mg, Delta Premium Pure Golden Yellow, advanced seedling stage (1 month old), drought, 3 d after treatment, Table 4): 19.0 | Yellow leaf number (10 mg, Delta Premium Pure Golden Yellow, drought, 3 d after treatment, Table 3): 14.7 | Yellow leaf number (10 mg, Matrix Orange, drought, 3 d after treatment, Table 1): 14 | Yellow leaf number (10 mg, Matrix Orange, drought, 3 d after treatment, Table 2): 15.2 | Yellow leaf number (30 mg ABA, Colossus Formula Mix, 3 days after treatment, Table 18): 9.0 | Yellow leaf number (30 mg ABA, Colossus Formula Mix, 3 days after treatment, Table 20): 8.0 | Yellow leaf number (30 mg ABA, Colossus Formula Mix, 8 days after treatment, Table 20): 12.3 | Yellow leaf number (30 mg ABA, Colossus Formula Mix, 9 days after treatment, Table 18): 13.0 | Yellow leaf number (30 mg ABA, Delta Premium Pure White, 3 days after treatment, Table 19): 5.2 | Yellow leaf number (30 mg ABA, Delta Premium Pure White, 3 days after treatment, Table 21): 7.2 | Yellow leaf number (30 mg ABA, Delta Premium Pure White, 3 days after treatment, Table 22): 13.5 | Yellow leaf number (30 mg ABA, Delta Premium Pure White, 3 days after treatment, Table 23): 14.3 | Yellow leaf number (30 mg ABA, Delta Premium Pure White, 3 days after treatment, Table 24): 12.2 | Yellow leaf number (30 mg ABA, Delta Premium Pure White, 7 days after treatment, Table 22): 20.2 | Yellow leaf number (30 mg ABA, Delta Premium Pure White, 7 days after treatment, Table 23): 21.3 | Yellow leaf number (30 mg ABA, Delta Premium Pure White, 7 days after treatment, Table 24): 18.2 | Yellow leaf number (30 mg ABA, Delta Premium Pure White, 8 days after treatment, Table 21): 9.0 | Yellow leaf number (30 mg ABA, Delta Premium Pure White, 9 days after treatment, Table 19): 11.0 | Yellow leaf number (30 mg ABA, Matrix Premium Rose, 3 d after treatment, Table 11): 14.0 | Yellow leaf number (30 mg ABA, Matrix Yellow, 3 d after treatment, Table 5): 25.2 | Yellow leaf number (30 mg ABA, Matrix Yellow, 3 d after treatment, Table 6): 17.3 | Yellow leaf number (30 mg ABA, Matrix Yellow, 3 days after treatment, Table 17): 19.3 | Yellow leaf number (30 mg ABA, Matrix Yellow, 7 days after treatment, Table 17): 28.5 | Yellow leaf number (30 mg ABA, no water, Matrix Premium Rose, 3 d after treatment, Table 13): 15.3 | Yellow leaf number (30 mg, Clear Sky Yellow, drought, 3 d after treatment, Table 8): 9.2 | Yellow leaf number (30 mg, Crown Azure Blue, drought, 3 d after treatment, Table 9): 15.0 | Yellow leaf number (30 mg, Delta Premium Pure Golden Yellow, advanced seedling stage (1 month old), drought, 3 d after treatment, Table 4): 28.2 | Yellow leaf number (30 mg, Delta Premium Pure Golden Yellow, drought, 3 d after treatment, Table 3): 21.0 | Yellow leaf number (30 mg, Matrix Orange, drought, 3 d after treatment, Table 1): 18 | Yellow leaf number (30 mg, Matrix Orange, drought, 3 d after treatment, Table 2): 21.3 | Yellow leaf number (30 mg, Matrix Yellow, drought, 3 d after treatment, Table 7): 21.0 | Yellow leaf number (30 mg, Matrix Yellow, drought, 3 d after treatment, Table 10): 21.2
